One compound from patent US11883419B2, “DNA polymerase gamma inhibitor and uses thereof” (ACIBADEM MEHMET ALI AYDINLAR UNIVERSITESI, priority 2018, dated 2024) can be followed below.

The structures appear in SMILES notation.

The test system of one test is Lovo. The following applies: 20 μM and 50 μM, 48 h.
The subject of another test is HCT116. In words: cells. As to conditions: Homo sapiens, HCT-116, 48 h, read-out: Inhibition of cell proliferation.
Another test concerns SW48. The following applies: SW48, 20 μM and 50 μM, 48 h.

In the case of `Nc1c(/N=N/c2ccc(-c3ccc(/N=N/c4cc(S(=O)(=O)O)c5ccccc5c4N)cc3)cc2)cc(S(=O)(=O)O)c2ccccc12` [Formula II], the “Inhibition of cell proliferation” value in the test on Lovo and in the test on SW48 was “did not inhibit” each time. Also, in the test with HCT116, the inhibition at 20 µM stood at 35%. For the same compound, the inhibition at 50 µM in the test on HCT116 came to 50%.
